Yeast mating assay 2: variants of the scFv Ab-95

Source: Engelhart et al. 2022 (doi:10.1038/s41597-022-01779-4), MIT Lincoln Laboratory and A-Alpha Bio; data file from the FLAb repository.

The target is the same throughout: PDVDLGDISGINAS, from the HR2 region of SARS-CoV-2 spike.

Each scFv is VH, a (GGGGS)3 linker, VL, as in the parent Ab-95, and differs from it in the CDRs of the light chain only.
VH: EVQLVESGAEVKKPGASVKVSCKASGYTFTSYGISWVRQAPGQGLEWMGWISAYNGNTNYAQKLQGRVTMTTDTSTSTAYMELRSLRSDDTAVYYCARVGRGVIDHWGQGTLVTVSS
VL: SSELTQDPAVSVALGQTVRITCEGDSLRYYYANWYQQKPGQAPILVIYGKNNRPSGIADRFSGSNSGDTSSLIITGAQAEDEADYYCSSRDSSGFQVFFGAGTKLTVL

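The starting antibody came from a phage panning campaign against this peptide. In library AAYL52, one, two or three CDR residues were substituted; doubles and triples were drawn at random. AlphaSeq pools MATa yeast showing the antibodies with MATalpha yeast showing the peptide. Binding brings cells together so that they mate, and sequencing counts the barcode pairs among the diploids. Each replicate has its own calibration line, from reference interactions of the BCL2 family. Each pool was mated in three replicate cultures.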

Positions count from residue 1 of the parent VL; Y31M puts M in place of Y. This list gathers variants with a substitution at R90 (VL, numbered from residue 1). Numbers give log10(Kd / nM), so 0 is 1 nM and 3 is 1 µM. Smaller is tighter. An entry "nd" has no value in the source: the pair was not observed among the diploids in that replicate. This suggests poor binding but is not conclusive. Nonspecific signal, from three strains lacking the peptide, appeared in 28% of pairings of library AAYL52, centred on 3.91 (5% of these signals below 2.90); values are not corrected for it. The control count says in how many pairings with the empty strains this scFv gave a signal. Parent in this assay: reference entry 2.31, copy in this library 2.25.

- Y31M/A32Q/R90L -> 4.74, nd, 3.37 (controls 2 of 9)
- R28E/R53S/R90H -> 2.92, 3.68, 3.99 (controls 6 of 9)
- N33P/S88Q/R90G -> 3.96, 5.56, nd (controls 4 of 9)
- S26I/R90G -> nd, nd, nd (controls 0 of 9)
- D25N/S26F/R90V -> 3.96, nd, nd (controls 2 of 9)
- R90W/S92M/Q96V -> 2.75, 3.33, 2.71 (controls 1 of 9)
- G24A/R90T/F95D -> nd, 2.91, 3.25 (controls 0 of 9)
- P54W/R90C -> 5.83, nd, nd (controls 2 of 9)
- S55D/R90I/S93A -> 1.71, 2.28, 3.09 (controls 3 of 9)
- G24E/N52S/R90I -> nd, 2.97, 4.46 (controls 2 of 9)
- S55C/R90Q -> 3.37, 2.59, 3.30 (controls 3 of 9)
- N52T/S89C/R90Y -> 2.06, 3.58, nd (controls 1 of 9)
- N52E/R90P/D91L -> 2.82, 2.39, 2.45 (controls 2 of 9)
- Y31K/S88Q/R90I -> 2.60, 2.50, 2.95 (controls 3 of 9)
- S26I/N52C/R90V -> nd, nd, nd (controls 3 of 9)
- D25A/R90Q/S93A -> 1.97, 1.91, 1.30 (controls 2 of 9)
- R90E/S92H/F95D -> 3.82, 3.62, 4.31 (controls 3 of 9)
- K50L/S55Y/R90C -> nd, 5.13, nd (controls 2 of 9)
- D25Y/R90S/F98T -> 2.92, 3.71, 2.57 (controls 4 of 9)
- N52C/R90Y/F95A -> 3.23, 2.78, 2.16 (controls 2 of 9)
- E23G/R28G/R90G -> 3.05, nd, nd (controls 2 of 9)
- R53D/S89V/R90V -> 5.30, 6.26, 3.31 (controls 1 of 9)
- R53E/R90F/S93N -> 3.91, nd, nd (controls 3 of 9)
- Y31G/S89D/R90E -> 2.19, 2.40, 2.85 (controls 5 of 9)
- S26M/R90G -> nd, nd, nd (controls 1 of 9)
- L27D/N51W/R90N -> nd, nd, nd (controls 3 of 9)
- S55V/R90E/S92A -> nd, 3.48, nd (controls 0 of 9)
- E23C/R28V/R90I -> nd, nd, nd (controls 1 of 9)
- R90N/D91S/G94P -> nd, 5.10, nd (controls 2 of 9)
- N52A/P54L/R90G -> 5.41, 3.58, nd (controls 3 of 9)
- R28W/S55W/R90I -> 3.14, 3.85, nd (controls 1 of 9)
- S55H/R90P/F98G -> 2.98, 3.23, 3.13 (controls 2 of 9)
- G24M/R90A/Q96R -> 4.21, 3.79, nd (controls 2 of 9)

The last 3 entries again:

| changes | log10 Kd, replicates | empty controls |
|---|---|---|
| R28W/S55W/R90I | 3.14, 3.85, nd | 1 of 9 |
| S55H/R90P/F98G | 2.98, 3.23, 3.13 | 2 of 9 |
| G24M/R90A/Q96R | 4.21, 3.79, nd | 2 of 9 |